Measurements taken from patent US11498974 (BIOARCTIC, dated 2022).

Columns and labels:
RmAb158-scFv8D3 [1] = assay: inhibition ELISA: serially diluted Aβ monomers pre-incubated with 50 ng/ml RmAb158-scFv8D3, then on Aβ protofibril coated plate
RmAb158 = assay: inhibition ELISA with RmAb158, written as printed; monomers and protofibrils are probably swapped in the sentence
RmAb158-scFv8D3 [2] = assay: inhibition ELISA: serially diluted Aβ protofibrils pre-incubated with 50 ng/ml RmAb158-scFv8D3, then on Aβ protofibril coated plate

| IC50 (RmAb158-scFv8D3 [1]) | IC50 (RmAb158) | IC50 (RmAb158-scFv8D3 [2]) | Substance |
| --- | --- | --- | --- |
| 0.4 µM | 0.0012 µM | – | Aβ monomers (from UniProt P05067 672-711) (peptide) |
| – | 1.2 µM | 0.00085 µM | Aβ protofibrils (from UniProt P05067 672-713) (peptide) |
